scFv variants of Ab-95 (light chain) against a SARS-CoV-2 spike peptide

From the AlphaSeq antibody data of Engelhart et al. 2022 (doi:10.1038/s41597-022-01779-4), copy in the FLAb collection.

Target: peptide PDVDLGDISGINAS, taken from heptad repeat 2 (HR2) of SARS-CoV-2 spike.

Parent scFv Ab-95: VH joined to VL by three GGGGS repeats. Changes lie in the light chain CDRs alone.
VH: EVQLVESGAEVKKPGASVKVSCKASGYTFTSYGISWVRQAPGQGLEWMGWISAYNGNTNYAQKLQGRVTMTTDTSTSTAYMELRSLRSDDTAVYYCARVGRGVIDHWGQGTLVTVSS
VL: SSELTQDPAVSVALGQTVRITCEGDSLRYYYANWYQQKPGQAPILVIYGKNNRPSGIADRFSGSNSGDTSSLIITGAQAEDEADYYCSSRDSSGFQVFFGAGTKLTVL

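Library AAYL52 holds single substitutions and randomly drawn double and triple substitutions in the CDRs. Affinity was read by AlphaSeq, a pooled yeast mating assay with surface-displayed partners. The frequency of each diploid, read from paired DNA barcodes, reflects how well the two displayed proteins bind. The ratio of observed to expected reads was calibrated, replicate by replicate, on BCL2-family standards whose Kd was known from biolayer interferometry. The assay was run in three technical replicates.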

Changes read parent residue, position, new residue, counted from the first residue of the VL shown.
Numbers give log10(Kd / nM), so 0 is 1 nM and 3 is 1 µM. Smaller is tighter.
Replicates are averaged; those with no signal do not enter the mean.
An entry "nd" has no value in the source: the pair was not observed among the diploids in that replicate. This suggests poor binding but is not conclusive.
Background: pairings of library AAYL52 with three empty control strains gave a value in 28% of cases (median 3.91, 5th percentile 2.90). Values in that range, when seen in few replicates, are hard to tell from nonspecific mating. For each scFv, signals with the empty controls are counted beside the result, with their mean in brackets.

changes	log10 Kd (nM) by replicate	mean, log10 nM	signal with controls
D25V N33W	3.17 nd nd	3.17	2 of 9 (4.20)
E23P Y31G D91T	nd nd nd	nd	2 of 9 (3.73)
A32P S92Q G94R	2.46 2.85 2.35	2.55	1 of 9 (3.76)
K50D D91A S93C	2.55 3.25 nd	2.90	4 of 9 (3.99)
E23Y Y30F R53S	nd nd nd	nd	3 of 9 (3.94)
L27N D91K S93C	3.83 nd nd	3.83	3 of 9 (3.53)
L27W N33C P54T	5.02 nd nd	5.02	3 of 9 (4.52)
R28M N33V R90C	nd nd nd	nd	3 of 9 (4.60)
Y29E S93K F95W	nd nd 3.13	3.13	1 of 9 (2.31)
Y29R R90D S93R	3.32 3.44 3.13	3.30	4 of 9 (3.87)
S89G V97C F98Q	4.79 5.32 2.41	4.17	2 of 9 (3.96)
S55V G94I	2.04 2.02 1.43	1.83	3 of 9 (3.09)
S26E A32K K50T	nd nd 2.74	2.74	0 of 9
S89W S93R G94V	nd nd nd	nd	1 of 9 (3.42)
Y31D S88Q D91H	1.46 1.11 1.26	1.28	3 of 9 (3.60)
Y29K F95G V97M	1.67 2.19 1.26	1.71	0 of 9
D25F S88Y Q96K	3.00 2.70 2.89	2.87	2 of 9 (3.58)
Y31H N52M P54Y	2.88 2.87 2.06	2.60	2 of 9 (4.08)
G24T A32V D91C	3.09 4.97 nd	4.03	2 of 9 (3.33)
E23H R28W S92F	nd nd nd	nd	1 of 9 (4.41)
Y30I S88I D91W	2.70 nd 2.67	2.69	0 of 9
G24I Y31F N52C	5.29 3.58 nd	4.43	4 of 9 (4.58)
G49Q N51S S89M	3.84 nd nd	3.84	2 of 9 (4.41)
S26K Y31M S89A	3.12 3.52 3.09	3.24	2 of 9 (4.11)
E23S D25H D91Q	2.84 nd 2.38	2.61	3 of 9 (4.15)
L27K A32S N33L	3.98 nd nd	3.98	1 of 9 (3.48)
G49D N51Y F98E	3.45 4.31 3.58	3.78	3 of 9 (3.77)
K50T Q96W	nd 4.97 nd	4.97	1 of 9 (3.73)
S55N Q96I F98L	3.21 2.88 2.79	2.96	1 of 9 (3.84)
E23A S26N V97S	3.08 2.62 3.07	2.92	3 of 9 (4.39)
R53M F95H Q96L	nd 5.60 nd	5.60	3 of 9 (3.54)
G24R S26V R53A	5.23 nd nd	5.23	3 of 9 (3.74)
L27T S55W D91Q	nd 2.67 nd	2.67	4 of 9 (3.88)
R28S Y29G Y31M	1.35 1.50 0.86	1.24	5 of 9 (3.70)
N52I S88V	3.44 3.37 2.74	3.18	5 of 9 (3.72)
E23D R53M S89G	5.45 4.47 3.55	4.49	3 of 9 (4.15)
N33I N52F F95V	nd nd nd	nd	4 of 9 (3.77)
S92H V97E	nd nd nd	nd	3 of 9 (3.80)
R53C P54K D91A	4.38 nd nd	4.38	4 of 9 (4.71)
A32E P54H	nd nd nd	nd	2 of 9 (3.71)
R53H P54G R90N	2.41 3.13 nd	2.77	3 of 9 (3.89)
S55I F95R V97F	3.23 nd 4.18	3.70	3 of 9 (4.06)
Y29D P54K S88L	nd nd nd	nd	3 of 9 (4.15)

From the list, the first 3 with no signal in any replicate:

| changes | log10 Kd (nM) by replicate | mean, log10 nM | signal with controls |
|---|---|---|---|
| E23P Y31G D91T | nd nd nd | nd | 2 of 9 (3.73) |
| E23Y Y30F R53S | nd nd nd | nd | 3 of 9 (3.94) |
| R28M N33V R90C | nd nd nd | nd | 3 of 9 (4.60) |